Source: patent US20100278938A1, “GENETIC TEST AND PET DIET” (MARS, INC, priority 2007, published 2010)

Assay: Pharmacokinetic study of oral zinc gluconate, plasma zinc by atomic absorption spectrometry
Type: in vivo, Labrador Retrievers
Details: from both dogs
Method: Two unrelated nine-year old, healthy Labrador Retrievers (1 female and 1 male) were used in a pharmacokinetic study. Food was withheld for a 12-hour period prior to oral administration of zinc, and during the initial 6-hour testing period. Water was freely available. Oral zinc gluconate was administered at a dose of 10 mg/kg in dog 1, and at a dose of 5 mg/kg in dog 2. Heparinized blood samples (4 ml) were collected from the jugular vein before dosing (time 0) and 15, 30, 45, 60, 90, 120 minutes, and 4, 8, 12 and 24 hours after application of the drug. Plasma was stored at −20° C. until analysis for zinc using atomic absorption spectrometry.
Pharmacokinetic parameters (WinNonlin 4.0.1. (Pharsight Corporation, 800 West El Camino Real, Mountain View, Calif., USA) and statistical analysis (SPSS 11.0 for windows, 2001, SPSS Inc., Chicago, Ill., USA) were calculated by use of commercially available software packages. Due to small group sizes a non-parametric statistical test was used for comparison between groups. A Mann-Whitney test was used to detect a difference between hepatic copper concentrations before and after treatment with diet and zinc-gluconate (group-1) at two control examinations (recheck-1 and recheck-2), and after treatment with diet and placebo (group-2) at both control examinations. […]

Substance: zinc gluconate
- calculated half-life t′/2: 15.1 h
